Here are results for four compounds from PMC11285371 (Journal of medicinal chemistry, 2023).

The assay relates to Mtb H37Rv::luxCDAB. In kind it is cell-based, Mycobacterium tuberculosis.

As to `Cc1cccc(-c2nc(Nc3ccc4ncoc4c3)c3ccccc3n2)n1` [compound 8], the “antibacterial activity against nonreplicating Mtb (in words, relative to AQA)” value is “reduced bactericidal activity”.

`Cc1cccc(-c2nc(Nc3ccc4ncn(C)c4c3)c3ccccc3n2)n1` [compound 9]: the “antibacterial activity against nonreplicating Mtb (in words, relative to AQA)” value is reported as “reduced bactericidal activity”.

Turning to `Cc1cccc(-c2nc(Nc3ccc4[nH]ccc4c3)c3ccccc3n2)n1` [compound 18], the “antibacterial activity against nonreplicating Mtb (in words, relative to AQA)” value was “reduced bactericidal activity”. With `Cc1cccc(-c2nc(Nc3ccc4ncccc4c3)c3ccccc3n2)n1` [compound 19] the entry was “reduced bactericidal activity”.
